Results reported in patent US9108930B2, “N1- and N2-carbamoyl-1,2,3-triazole serine hydrolase inhibitors and methods” (The Scripps Research Institute, priority 2011, dated 2015).

Assays:
[1] = system: serine hydrolases (SHs) in BW5147-derived murine T-cell hybridoma cells; assay: Competitive ABPP-SILAC in mouse T-cells (in situ), SH-wide profile; assay type: cell-based; settings: 3 nM inhibitor, 4 h
Description: Briefly, mouse T-cells were cultured under ‘light’ (with ^12C6^14N2-lysine and ^12C6^14N4-arginine containing medium) and ‘heavy’ conditions (with ^13C6^15N2-lysine and ^13C6^15N4-arginine). The light and heavy cells were treated with inhibitor and DMSO, respectively, and then harvested, lysed, separated into soluble and membrane fractions, and treated with FP-biotin (5 μM, 90 min). Light and heavy fractions were then mixed, enriched with avidin, digested on-bead with trypsin, and analyzed by LC-MS/MS using an LTQ-Orbitrap instrument. Light and heavy signals were quantified from parent ion peaks (MS1) and the corresponding proteins identified from product ion profiles (MS2) using the SEQUEST search algorithm. The depicted bar graphs represent the average ratios of light/heavy tryptic peptides for each of the 46 SHs identified in mouse T-cells (FIG. 2d). While in situ treatment with carbamate AA38-3 inhibited three SHs (ABHD6, ABHD11, and FAAH), 15 SHs were inhibited by triazole urea AA26-9 (including the aforementioned three targets of AA38-3) (FIG. 2d). […] Taking into account the predicted molecular masses of AA26-9-inhibited and AA38-3-inhibited SHs, as well as their sensitivity to one or both inhibitors, allowed for confident assignment of many of the SH signals on ABPP gels (FIG. 2b).

[2] = system: serine hydrolases detected in the Neuro2A proteome; assay: ABPP-SILAC in Neuro2A cells, other serine hydrolases; settings: about 4 hours; 25 nM KT172 and KT195, 50 nM KT109

COCC1CCCCN1C(=O)n1ncc(C(O)(c2ccccc2)c2ccccc2)n1 (centres unmarked) [AA44-2]
effect on other SHs detected in T-cells [1]: not affecting any of the other 40+ SHs detected in T-cells

CC(C)CC(O)(CC(C)C)c1cnn(C(=O)N2CCCC2)n1 [AA74-1]
effect on other SHs detected in T-cells [1]: not affecting any of the other 40+ SHs detected in T-cells

O=C(N1CCCCC1Cc1ccccc1)n1cc(-c2ccc(-c3ccccc3)cc2)nn1 (centres unmarked) [KT109]
activity against other serine hydrolases [2]: negligible activity against any other serine hydrolases detected in the Neuro2A proteome with the exception of ABHD6

COc1ccccc1-c1ccc(-c2cn(C(=O)N3CCCCC3Cc3ccccc3)nn2)cc1 (centres unmarked) [KT172]
activity against other serine hydrolases [2]: negligible activity against any other serine hydrolases detected in the Neuro2A proteome with the exception of ABHD6

COc1ccc(-c2ccc(-c3cn(C(=O)N4CCCCC4c4ccccc4)nn3)cc2)cc1 (centres unmarked) [KT195]
activity against other serine hydrolases [2]: no activity against other serine hydrolase detected in the Neuro2A proteome, including DAGLB
